Measurements taken from patent US20140363406A1, “ESTROGEN METABOLITE LEVELS AND CYP1B1 POLYMORPHISMS IN LUNG CANCER DIAGNOSIS, PROGNOSIS, AND RISK ASSESSMENT” (Institute for Cancer Research d/b/a The Research Institute …, priority 2012, published 2014).

Target: T1, CYP1B1 (Mus musculus, UniProt Q64429)
T1 sequence (Q64429 1-543): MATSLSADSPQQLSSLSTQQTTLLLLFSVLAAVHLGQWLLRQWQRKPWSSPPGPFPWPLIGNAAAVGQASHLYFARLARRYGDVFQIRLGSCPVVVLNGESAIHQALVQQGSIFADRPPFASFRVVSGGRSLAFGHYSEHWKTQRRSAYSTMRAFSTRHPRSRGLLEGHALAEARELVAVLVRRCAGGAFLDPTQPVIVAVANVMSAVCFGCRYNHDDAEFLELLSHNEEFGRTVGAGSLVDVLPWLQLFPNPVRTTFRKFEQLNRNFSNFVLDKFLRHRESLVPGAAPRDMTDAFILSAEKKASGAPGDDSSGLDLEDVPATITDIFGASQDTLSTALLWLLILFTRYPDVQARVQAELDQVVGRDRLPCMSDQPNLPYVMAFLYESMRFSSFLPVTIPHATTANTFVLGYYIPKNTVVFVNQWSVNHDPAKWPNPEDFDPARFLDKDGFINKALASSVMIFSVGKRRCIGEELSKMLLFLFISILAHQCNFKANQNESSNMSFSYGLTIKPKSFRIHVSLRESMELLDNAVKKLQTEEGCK
Experiment: Impact of Cyp1b1 deletion on lung estrogen/EM levels (Cyp1b1-KO vs Cyp1b1-WT 129SvJ mice), LC-MS2
Experimental: Animals. […] Smoke exposures were performed on female C57/B6 mice (1.5-2 years old) carrying a human APOE*4 transgene that were part of an atherosclerosis study at Duke University and fed a high-fat diet TD.88051. Animals had free access to food and water. All animal experimentation was approved by the Institutional Animal Care and Use Committees at Fox Chase Cancer Center and Duke University.
Genotyping. PCR-based genotyping of Cyp1b1 wild-type (Cyp1b1-WT) and knockout (Cyp1b1-K0) mice was performed using Choice Taq Blue DNA Polymerase Master mix (Denville Scientific, South Plainfield, N.J.) according to the following protocol: Wild-type primers—[…]
Lung tissue collection. Following euthanasia, the lungs were perfused by intracardiac injection with 30 ml phosphate buffered saline to flush out the blood. Perfused tissues were snap-frozen in liquid nitrogen and stored at −80° C. […]
The extract was chilled at −80° C. for 10 min, returned to room temperature and centrifuged at 3000 × g for 20 min. […] All samples were centrifuged at 3000 ×g for 20 min and analyzed using LC-M5^2. The efficiency of extracting estrogen and its metabolites from the tissue cannot be measured accurately because a known amount of each metabolite cannot be placed in the tissue prior to extraction. […]

increase in lung level in Cyp1b1-KO compared with WT controls (females): 5 fold | increase in lung level in Cyp1b1-KO compared with WT controls (males): 3.5 fold
SMILES: COc1cc2c(cc1O)CC[C@@H]1[C@@H]2CC[C@]2(C)[C@@H](O)CC[C@@H]12 [2-OMeE2, 2-methoxyestradiol]
